Biological target: cAMP and cAMP-inhibited cGMP 3',5'-cyclic phosphodiesterase 10A (Homo sapiens, UniProt Q9Y233)
Assay: Inhibition of recombinant full length human PDE10A by scintillation proximity assay in presence of cAMP

Amino acid sequences for entries named in this document (tags omitted). A change or cut given only in a name is not applied to a line headed by its entry.
UniProt Q9Y233: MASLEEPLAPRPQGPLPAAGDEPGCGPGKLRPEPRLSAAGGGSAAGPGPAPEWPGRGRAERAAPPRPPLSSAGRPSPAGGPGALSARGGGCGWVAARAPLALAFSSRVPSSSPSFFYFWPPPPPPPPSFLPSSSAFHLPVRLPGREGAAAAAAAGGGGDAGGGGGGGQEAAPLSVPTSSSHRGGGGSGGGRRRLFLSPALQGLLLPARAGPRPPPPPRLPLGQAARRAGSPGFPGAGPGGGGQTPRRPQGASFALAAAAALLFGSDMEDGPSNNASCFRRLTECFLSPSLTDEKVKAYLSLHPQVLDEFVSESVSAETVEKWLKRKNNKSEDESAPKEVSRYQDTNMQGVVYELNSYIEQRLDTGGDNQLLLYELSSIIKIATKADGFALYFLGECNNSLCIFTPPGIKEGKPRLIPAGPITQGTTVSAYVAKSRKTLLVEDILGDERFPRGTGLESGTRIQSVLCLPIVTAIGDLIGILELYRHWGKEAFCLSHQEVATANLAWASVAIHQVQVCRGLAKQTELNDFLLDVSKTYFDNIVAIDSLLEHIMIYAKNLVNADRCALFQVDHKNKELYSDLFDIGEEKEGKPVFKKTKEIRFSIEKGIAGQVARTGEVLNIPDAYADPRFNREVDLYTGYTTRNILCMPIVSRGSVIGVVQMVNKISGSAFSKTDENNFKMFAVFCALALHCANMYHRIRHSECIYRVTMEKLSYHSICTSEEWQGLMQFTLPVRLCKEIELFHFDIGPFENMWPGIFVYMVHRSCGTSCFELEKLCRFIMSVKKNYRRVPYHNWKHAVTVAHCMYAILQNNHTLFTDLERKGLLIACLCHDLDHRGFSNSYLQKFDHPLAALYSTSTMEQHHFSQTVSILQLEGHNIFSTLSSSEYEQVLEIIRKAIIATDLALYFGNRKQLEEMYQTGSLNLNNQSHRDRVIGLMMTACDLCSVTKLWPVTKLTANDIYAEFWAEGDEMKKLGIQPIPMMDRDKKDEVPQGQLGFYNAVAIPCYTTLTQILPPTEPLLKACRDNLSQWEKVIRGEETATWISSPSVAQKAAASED

SMILES: COc1ccc(Cc2nccc3cc(OC)c(OC)cc23)cc1OC [PAPAVERINE]
- IC50: 92.3 nM

— ChEMBL document CHEMBL3769307, “Selective inhibitors of phosphodiesterases: therapeutic promise for neurodegenerative disorders” (Medchemcomm, 2015)
